Amino acid sequences for entries named in this document (tags omitted). Residues count along the entry.
UniProt Q08722, 19-323: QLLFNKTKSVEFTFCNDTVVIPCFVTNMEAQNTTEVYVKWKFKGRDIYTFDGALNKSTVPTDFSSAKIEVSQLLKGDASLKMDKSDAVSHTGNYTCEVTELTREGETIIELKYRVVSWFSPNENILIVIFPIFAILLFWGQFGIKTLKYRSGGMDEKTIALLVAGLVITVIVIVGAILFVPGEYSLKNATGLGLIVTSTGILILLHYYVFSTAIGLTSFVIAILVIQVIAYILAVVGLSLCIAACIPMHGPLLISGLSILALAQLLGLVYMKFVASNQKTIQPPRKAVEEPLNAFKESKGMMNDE

In patent publication US20220267475A1 (published 2022):

biological target: CD47 antigen expressed on CHO-K1 cells (UniProt Q08722 19-323); test: flow

EC50 [nM] | Binder
0.653 | TIGIT-E-LC (bispecific antibody) heavy: not shown light: EIVLTQSPATLSLSPGERATLSCRASENVGTYISWYQQKPGQAPRLLIYGASNRYTGIPARFSGSGSGTDFTLTISSLEPEDFAVYYCGESYGHLYTFGGGTKVEIKRTVAAPSVFIFPPSDEQLKSGTASVVCLLNNFYPREAKVQWKVDNALQSGNSQESVTEQDSKDSTYSLSSTLTLSKADYEKHKVYACEVTHQGLSSPVTKSFNRGECEPKSSDKTHTSPPSPEVQLVESGGGLVQPGGSLRLSCAASGYKYGVYSMGWFRQAPGKGLEGVSAICSGGRTTYSDSVKGRFTISRDNSNQILYLQMNSLRAEDTAVYYCAARPLWTGDCDLSSSWYKTWGQGTLVTVSS
0.37 | TIGIT-E-LN (bispecific antibody) heavy: not shown light: EVQLVESGGGLVQPGGSLRLSCAASGYKYGVYSMGWFRQAPGKGLEGVSAICSGGRTTYSDSVKGRFTISRDNSNQILYLQMNSLRAEDTAVYYCAARPLWTGDCDLSSSWYKTWGQGTLVTVSSEPKSSDKTHTSPPSPEIVLTQSPATLSLSPGERATLSCRASENVGTYISWYQQKPGQAPRLLIYGASNRYTGIPARFSGSGSGTDFTLTISSLEPEDFAVYYCGESYGHLYTFGGGTKVEIKRTVAAPSVFIFPPSDEQLKSGTASVVCLLNNFYPREAKVQWKVDNALQSGNSQESVTEQDSKDSTYSLSSTLTLSKADYEKHKVYACEVTHQGLSSPVTKSFNRGEC
1.04 | TIGIT-G9-LN (bispecific antibody) heavy: not shown light: EVQLVESGGGLVQPGGSLRLSCAASGYKYGVYSMGWFRQAPGKGLEGVSAICSGGRTTYSDSVKGRFTISRDNSNQILYLQMNSLRAEDTAVYYCAARPLWTGDCDLSSSWYKTWGQGTLVTVSSGGGGSGGGSEIVLTQSPATLSLSPGERATLSCRASENVGTYISWYQQKPGQAPRLLIYGASNRYTGIPARFSGSGSGTDFTLTISSLEPEDFAVYYCGESYGHLYTFGGGTKVEIKRTVAAPSVFIFPPSDEQLKSGTASVVCLLNNFYPREAKVQWKVDNALQSGNSQESVTEQDSKDSTYSLSSTLTLSKADYEKHKVYACEVTHQGLSSPVTKSFNRGEC
